From PMC11404765 (Journal of Clinical Oncology, 2024)

Columns and labels:
[1] = test system: BTC harboring FGFR2 fusions or rearrangements; settings: phase II trials; cited from earlier work
[2] = HERB phase II trial: safety in the safety analysis set; type: in vivo, human
HER2-expressing BTC = assay: HERB phase II trial: confirmed tumor response in the full analysis set; type: in vivo, human; settings: FAS (n = 30)
HER2-low BTC = assay: HERB phase II trial: confirmed tumor response and survival in HER2-low BTC; type: in vivo, human; settings: HER2-low (n = 8)
HER2-positive BTC [3] = assay: HERB phase II trial: confirmed tumor response and survival in HER2-positive BTC; type: in vivo, human
[4] = Incidence of human antihuman antibody; type: in vivo; settings: samples from seven patients
HER2-positive BTC [5] = settings: global phase IIb trial; cited from earlier work

C=CC(=O)N1CC[C@H](n2nc(C#Cc3cc(OC)cc(OC)c3)c3c(N)ncnc32)C1 [futibatinib]
ORR [1]: 41.7%

Trastuzumab deruxtecan [T-DXd]
Treatment-related ≥grade 3 adverse events, patients ([2]; SAS (26/32)): 81.3%
Dose reduction because of treatment-related adverse events ([2]; SAS (n = 32)): 18.8%
Reason for discontinuation: adverse event ([2]; SAS (n = 32)): 7 (21.9) No. (%)
Serious TRAEs ([2]; SAS (n = 32)): 6 (18.8) No. (%)
TRAEs leading to treatment discontinuation ([2]; SAS (n = 32)): 8 (25.0) No. (%)
TRAEs leading to treatment interruption ([2]; SAS (n = 32)): 12 (37.5) No. (%)
≥grade 3 treatment-related anemia ([2]; SAS (n = 32)): 53.1%
≥grade 3 treatment-related decreased lymphocyte count ([2]; SAS (n = 32)): 21.9%
Any TRAEs ([2]; SAS (n = 32), 5.4 mg/kg every 3 weeks): 32 (100) No. (%)
ILD or pneumonitis grade 4 ([2]; among patients with ILD or pneumonitis (n = 8)): 0 No. (%)
Best response CR, LIR (HER2-expressing BTC): 0 No. (%)
Best response NE, LIR (HER2-expressing BTC): 0 No. (%)
Best response PD, BICR (HER2-expressing BTC): 4 (13.3) No. (%)
Best response PD, LIR (HER2-expressing BTC): 6 (20.0) No. (%)
Best response PR, BICR (HER2-expressing BTC): 7 (23.3) No. (%)
Confirmed ORR by BICR (HER2-expressing BTC): 30.0%
Confirmed ORR by LIR, % (95% CI) (HER2-expressing BTC): 30.0 (14.7 to 49.4) %
Best response CR, BICR (HER2-low BTC): 0 No. (%)
Best response CR, LIR (HER2-low BTC): 0 No. (%)
Best response NE, LIR (HER2-low BTC): 0 No. (%)
Best response SD, BICR (HER2-low BTC): 5 (62.5) No. (%)
Best response SD, LIR (HER2-low BTC): 4 (50.0) No. (%)
Confirmed ORR by LIR, % (95% CI) (HER2-low BTC): 12.5 (0.3 to 52.7) %
DCR by BICR, % (95% CI) (HER2-low BTC): 75.0 (34.9 to 96.8) %
DCR by LIR, % (95% CI) (HER2-low BTC): 62.5 (24.5 to 91.5) %
Confirmed ORR by BICR (HER2-low BTC; FAS, 5.4 mg/kg every 3 weeks): 12.5%
Best response CR, LIR (HER2-positive BTC [3]; HER2-positive (n = 22)): 0 No. (%)
Best response NE, LIR (HER2-positive BTC [3]; HER2-positive (n = 22)): 0 No. (%)
Best response PR, BICR (HER2-positive BTC [3]; HER2-positive (n = 22)): 6 (27.3) No. (%)
Best response PR, LIR (HER2-positive BTC [3]; HER2-positive (n = 22)): 8 (36.4) No. (%)
Best response SD, BICR (HER2-positive BTC [3]; HER2-positive (n = 22)): 10 (45.5) No. (%)
Best response SD, LIR (HER2-positive BTC [3]; HER2-positive (n = 22)): 11 (50.0) No. (%)
Confirmed ORR by LIR, % (95% CI) (HER2-positive BTC [3]; HER2-positive (n = 22)): 36.4 (17.2 to 59.3) %
DCR by BICR, % (95% CI) (HER2-positive BTC [3]; HER2-positive (n = 22)): 81.8 (59.7 to 94.8) %
DCR by LIR, % (95% CI) (HER2-positive BTC [3]; HER2-positive (n = 22)): 86.4 (65.1 to 97.1) %
Confirmed ORR by BICR, % (95% CI) (HER2-positive BTC [3]; HER2-positive subgroup: ECOG PS 1): 28.6 (3.7 to 71.0) %
Confirmed ORR by BICR, % (95% CI) (HER2-positive BTC [3]; HER2-positive subgroup: IHC2+): 33.3 (9.9 to 65.1) %
Confirmed ORR by BICR, % (95% CI) (HER2-positive BTC [3]; HER2-positive subgroup: age <65 years): 33.3 (7.5 to 70.1) %
Confirmed ORR by BICR, % (95% CI) (HER2-positive BTC [3]; HER2-positive subgroup: age ≥65 years): 38.5 (13.9 to 68.4) %
Confirmed ORR by BICR, % (95% CI) (HER2-positive BTC [3]; HER2-positive subgroup: ampulla of Vater cancer): 50.0 (1.3 to 98.7) %
Confirmed ORR by BICR, % (95% CI) (HER2-positive BTC [3]; HER2-positive subgroup: extrahepatic cholangiocarcinoma): 33.3 (4.3 to 77.7) %
Confirmed ORR by BICR, % (95% CI) (HER2-positive BTC [3]; HER2-positive subgroup: female): 55.6 (21.2 to 86.3) %
Confirmed ORR by BICR, % (95% CI) (HER2-positive BTC [3]; HER2-positive subgroup: gallbladder cancer): 36.4 (10.9 to 69.2) %
Confirmed ORR by BICR, % (95% CI) (HER2-positive BTC [3]; HER2-positive subgroup: intrahepatic cholangiocarcinoma): 33.3 (0.8 to 90.6) %
Confirmed ORR by BICR, % (95% CI) (HER2-positive BTC [3]; HER2-positive subgroup: locally advanced): 50.0 (1.3 to 98.7) %
Confirmed ORR by BICR, % (95% CI) (HER2-positive BTC [3]; HER2-positive subgroup: male): 23.1 (5.0 to 53.8) %
Confirmed ORR by BICR, % (95% CI) (HER2-positive BTC [3]; HER2-positive subgroup: metastatic): 35.0 (15.4 to 59.2) %
Confirmed ORR by BICR, % (95% CI) (HER2-positive BTC [3]; HER2-positive subgroup: recurrent): 33.3 (7.5 to 70.1) %
Confirmed ORR by BICR, % (95% CI) (HER2-positive BTC [3]; HER2-positive subgroup: unresectable): 38.5 (13.9 to 68.4) %
HAHA status [4]: HAHA-negative

Zanidatamab
ORR (HER2-positive BTC [5]): 41.3%
